Earlier results in US20210147507A1, “METHODS TO AUGMENT OR ALTER SIGNAL TRANSDUCTION” (Bellicum Pharmaceuticals, Inc., priority 2017, published 2021).

Sequences of proteins named here, by UniProt entry; tags and fusion partners are left off. A change or cut given only in a name is not applied to a line headed by its entry.
UniProt P62942: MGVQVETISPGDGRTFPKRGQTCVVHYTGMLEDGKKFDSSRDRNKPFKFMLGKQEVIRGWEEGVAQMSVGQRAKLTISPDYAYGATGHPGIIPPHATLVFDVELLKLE

How the values were obtained:
[1] = molecular target: FRB-KLW (Homo sapiens, UniProt P42345+P62942, T2098L); settings: cited from earlier work
[2] = molecular target: wt FRB (K2095 T2098 W2101) (Homo sapiens, UniProt P42345+P62942); settings: cited from earlier work

S-o,p-dimethoxyphenyl (DMOP)-rapamycin
EC50 [1]: ~5 nM
EC50 [2]: ~1000 nM
